Patent US7495030B2, “(5-(2-hydroxy-4-chlorobenzoyl) aminovaleric acid and salts thereof and compositions containing the same for delivering active agents” (Emisphere Technologies, Inc., priority 2000, dated 2009)

Assay: Insulin oral delivery in rats, serum human insulin by ELISA and serum glucose
Conditions: oral dosing with human insulin alone (no delivery agent); previous experiments
Procedure: Oral dosing (PO) compositions of delivery agent compound and human zinc insulin (minimum 26 IU/mg available from Calbiochem—Novabiochem Corp, La Jolla, Calif.) were prepared in deionized water. […] The solution was vortexed, then heated (about 37° C.) and sonicated. The pH was adjusted to about 7 to 8.5 with NaOH or HCl.
About 1.25 mg insulin from an insulin stock solution (15 mg/ml made from 0.5409 g insulin and […] deionized water, adjusting with HCl and NaOH to pH 8.15 and to obtain a clear solution using […]) was added to the solution and mixed by inverting.
The typical dosing and sampling protocols were as follows. […] A dosing group of five animals was administered one of the dosing solutions. […] The syringe was filled with dosing solution by drawing the solution through the catheter, which was then wiped dry. The catheter was placed down the esophagus leaving 1 cm of tubing past the incisors. Solution was administered by pressing the syringe plunger.
Serum insulin levels were determined with an Insulin ELISA Test Kit (Kit # DSL-10-1600 from Diagnostic Systems Laboratories, Inc., Webster, Tex.), modifying the standard protocol in order to optimize the sensitivity and linear range of the standard curve for the volumes and concentrations of the samples used in the present protocol. […]

In the case of human insulin, the “Serum human insulin levels” value was “no measurable levels”.
